# Source: patent US20100068793A1, “DEVICES AND METHODS FOR PRODUCTION OF CELL AGGREGATES” (priority 2007, published 2010)
# Tested on: hESC
# Test: Aggregate formation from hESC cultured on Matrigel after BMP pre-differentiation
# Type: cell-based, human
# Settings: 25 ng/mL BMP2 pre-differentiation, control without BMP2 formed no aggregates
# Experimental: b) for 48 hours prior to harvesting, replace growth medium with X-Vivo10+25 ng/mL BMP2; or
# 3. Prepare a single-cell suspension by treating the hESC culture with TrypIE for 5 minutes, and washing the cells off with X-Vivo10
# 4. Count cells, spin down and re-suspend to 1 million cells/mL in X-Vivo or other medium of interest. Cells may all derive from a single culture, or cells from different sources may be combined.
# 5. Suspend cells in X-vivo10 or other medium of interest at a concentration appropriate to the desired EB size and plate format (e.g. to form aggregates from 10,000 cells in 100 μL medium each in 96-well plates, suspend 1 million cells in 10 mL; for aggregates from 2,000 cells in 25 μL medium each in 384-well plates, suspend 0.8 million cells in 10 mL. NB multichannel pipettes or automated liquid handling systems often require a minimum “dead volume”, thus it may be necessary to make 10-20% additional volume of suspension depending on the specifics of the equipment employed.
# 6. Dispense the cell suspension into the well plates prepared in step 2.
# 7. Centrifuge for 5 minutes at 240×g
# 8. Incubate overnight at 37 degrees, 5% CO2 in a standard tissue culture incubator.
# 9. Recover EBs by pipetting using large-bore or cut-off pipette tips or by inverted centrifugation in the device described and illustrated in FIG. 1 or 2 for 1 minute at 20×g […]
substance,measurement,value
"BMP2: Bone Morphogenetic Protein-2, growth factor used for pre-differentiation (R&D Systems)",stable aggregate formation after BMP2 pre-differentiation,Aggregates formed from the pre-differentiated population
